Series [1] addresses human type 1 glycine transporter (GlyT1) (Homo sapiens, UniProt P48067). The series can be described thus: Glycine uptake inhibition experiment ([3H] glycine uptake in T98G cells). The settings on record: read-out: IC50 (glycine uptake inhibiting activity), [3H] glycine 250 nM, 15 min, room temperature. How it is done: A glycine uptake inhibition experiment was conducted in accordance with the method described in Neuron, 8, 927-935, 1992. Used in the experiment were T98G cells (glioma cells) developing a human type 1 glycine transporter (GlyT1). The T98G cells were seeded in a 96-well plate at a density of 2.0×10^4 cells per well and cultured overnight in a CO2 incubator. The test substance was first dissolved in a 100% DMSO solution and then dissolved in a 10 mM HEPES buffer solution (pH 7.4) supplemented with 150 mM sodium chloride, 1 mM calcium chloride, 5 mM potassium chloride, 1 mM magnesium chloride, 10 mM glucose, and 0.2% bovine serum albumin. After removing the cell culture medium, the test substance was subjected to a 10-min pretreatment. […] The glycine content in the cells was determined by measuring the radioactivity in the cell lysate with a liquid scintillation counter. With the amount of glycine uptake in the presence of 10 μM ALX5407 being referred to as the nonspecific uptake, the amount of specific uptake was calculated by subtracting the amount of nonspecific uptake from the total amount of uptake in the absence of 10 μM ALX5407. In addition, glycine uptake inhibiting activity (IC50) was calculated from an inhibition curve for the concentration of the test substance ranging from 10^−9 to 10^−5 M.

By UniProt entry, the sequences of proteins in these tests, tags left out.
UniProt P48067, whole entry: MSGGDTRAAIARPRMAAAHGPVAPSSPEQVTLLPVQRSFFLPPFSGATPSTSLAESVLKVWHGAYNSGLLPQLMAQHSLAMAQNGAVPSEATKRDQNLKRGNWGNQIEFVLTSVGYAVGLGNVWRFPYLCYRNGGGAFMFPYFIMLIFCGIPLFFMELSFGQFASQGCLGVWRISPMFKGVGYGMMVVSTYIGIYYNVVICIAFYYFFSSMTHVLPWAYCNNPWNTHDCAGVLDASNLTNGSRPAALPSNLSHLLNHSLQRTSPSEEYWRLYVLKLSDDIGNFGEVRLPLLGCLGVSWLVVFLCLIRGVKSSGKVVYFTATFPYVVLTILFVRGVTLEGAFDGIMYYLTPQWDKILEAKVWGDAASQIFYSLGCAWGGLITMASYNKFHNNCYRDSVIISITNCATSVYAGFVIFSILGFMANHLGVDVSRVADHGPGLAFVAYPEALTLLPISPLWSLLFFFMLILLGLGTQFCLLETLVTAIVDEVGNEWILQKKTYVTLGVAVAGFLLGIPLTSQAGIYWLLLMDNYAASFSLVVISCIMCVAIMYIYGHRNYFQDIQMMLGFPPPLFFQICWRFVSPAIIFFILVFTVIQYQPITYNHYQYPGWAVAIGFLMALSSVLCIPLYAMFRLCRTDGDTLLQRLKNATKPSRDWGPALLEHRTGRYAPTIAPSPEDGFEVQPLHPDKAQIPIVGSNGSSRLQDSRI
UniProt P08183, whole entry: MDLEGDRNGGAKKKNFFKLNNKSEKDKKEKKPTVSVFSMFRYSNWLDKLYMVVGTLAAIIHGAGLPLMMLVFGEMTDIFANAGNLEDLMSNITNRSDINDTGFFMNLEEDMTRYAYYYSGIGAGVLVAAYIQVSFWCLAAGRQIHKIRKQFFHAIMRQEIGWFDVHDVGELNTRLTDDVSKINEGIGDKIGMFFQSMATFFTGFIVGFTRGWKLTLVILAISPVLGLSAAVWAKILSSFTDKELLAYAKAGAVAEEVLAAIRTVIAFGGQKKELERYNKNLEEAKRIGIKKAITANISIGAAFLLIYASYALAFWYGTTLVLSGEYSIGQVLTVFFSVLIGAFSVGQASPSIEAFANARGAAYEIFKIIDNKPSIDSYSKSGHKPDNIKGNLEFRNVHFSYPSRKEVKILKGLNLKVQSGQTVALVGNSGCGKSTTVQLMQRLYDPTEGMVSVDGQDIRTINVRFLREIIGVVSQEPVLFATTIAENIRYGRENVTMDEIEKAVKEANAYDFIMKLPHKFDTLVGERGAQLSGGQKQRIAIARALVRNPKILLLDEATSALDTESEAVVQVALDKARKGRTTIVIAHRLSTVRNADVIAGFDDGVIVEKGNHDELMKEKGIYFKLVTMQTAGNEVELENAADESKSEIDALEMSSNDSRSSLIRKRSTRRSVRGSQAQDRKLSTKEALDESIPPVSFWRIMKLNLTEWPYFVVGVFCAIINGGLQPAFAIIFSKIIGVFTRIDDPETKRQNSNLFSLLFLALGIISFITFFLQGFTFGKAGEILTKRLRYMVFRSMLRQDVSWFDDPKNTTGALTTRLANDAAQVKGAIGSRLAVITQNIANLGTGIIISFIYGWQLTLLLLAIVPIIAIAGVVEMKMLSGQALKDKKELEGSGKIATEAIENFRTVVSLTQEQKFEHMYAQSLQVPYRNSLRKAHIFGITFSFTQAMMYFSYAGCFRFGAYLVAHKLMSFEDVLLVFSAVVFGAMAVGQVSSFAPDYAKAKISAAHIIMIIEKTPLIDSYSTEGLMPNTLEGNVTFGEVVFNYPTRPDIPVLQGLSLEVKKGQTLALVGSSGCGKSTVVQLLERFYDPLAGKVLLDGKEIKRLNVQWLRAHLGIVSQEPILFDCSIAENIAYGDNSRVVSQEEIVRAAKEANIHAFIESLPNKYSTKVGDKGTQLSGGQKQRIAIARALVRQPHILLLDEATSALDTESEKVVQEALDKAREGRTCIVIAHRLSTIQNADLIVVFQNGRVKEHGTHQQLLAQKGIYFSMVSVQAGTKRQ

Another series has as its target P-gp (Human MDR1) (Homo sapiens, UniProt P08183). Nature of the series: Test for recognizability of P-gp substrate (LLC-GA5-COL 300 cells). The note with it: 10 μM, criteria of Nature Reviews Drug Discovery (2010) 9, 215-236. The text has this: In order that drugs acting on the central nervous system will develop their efficacy, their passage from the blood to the brain is generally important. While various efflux transporters are present at the blood-brain barrier to control this passage of drugs, P-glylcoprotein (P-gp) is a typical example and inhibits the passage to the brain of any drugs that serve as the substrate for P-gp. Therefore, in the development of pharmaceuticals, nonrecognizability of a candidate drug as the substrate for P-gp is the key to its passage to the brain.
A test for recognizability of P-gp substrate was performed in accordance with a modified version of the methods described in J. Pharmacol. Exp. Ther. (1992) Vol. 263, No. 2, 840-845 and J. Biol. Chem. (1992) Vol. 267, No. 34, 24248-24252. […] A solution of an assay compound (a DMSO solution of the compound as diluted with HBSS and adjusted to a final concentration of 10 μM) was added to the donor side of the LLC-GA5-COL 300 cells and a prescribed amount of HBSS was collected from the acceptor side at given time intervals and the concentration of the assay compound in the collected sample was measured by LC-MS/MS. […]

Series [2] in a line: Membrane permeability experiment (PAMPA Evolution). The note with it: artificial lipid GIT-0, pH 4.0, 5.0, 6.2 and 7.4, marker metoprolol. The method, then:
In the development of pharmaceuticals, membrane permeability is an important factor to consider from the viewpoint of relationship with the bodily absorption of a medicament to be administered orally. Compounds having high membrane permeability are expected to feature satisfactory absorption by the intestinal tract (see Pharmaceutical Research (2002) Vol. 19, No. 7, 921-925.)
A membrane permeability test was conducted using PAMPA Evolution™ (pION INC.) in accordance with a modified version of the recommended protocol of pION INC. To be more specific, solutions of an assay compound (i.e., a DMSO solution of the compound as diluted by being added to system solutions that had been adjusted to prescribed pHs (4.0, 5.0, 6.2, and 7.4)) were prepared and added to the lower compartment (donor) of a sandwich plate having a lipid bilayer membrane formed of an artificial lipid (GIT-0). An acceptor sink buffer was added to the upper compartment (acceptor) and after the lapse of a prescribed period, the cumulative permeation of the compound was measured by performing UV spectroscopy on the solutions in the donor and acceptor, and the membrane permeability coefficient Pe (×10^−6 cm/sec) was calculated to assay the membrane permeability of the compound. […]
(PAMPA measures passive passage across an artificial lipid membrane.)

For `Cn1cnc(C(=O)N(Cc2cccc(OC(F)(F)F)c2)C2CCOCC2)c1`, the IC50 in series [1] stood at 4.7 nM. The “recognizability as P-gp substrate (efflux ratio basal→apical / apical→basal)” value at P-gp (Human MDR1) is given as “not recognizable as the substrate for P-gp”.
Turning to `O=C(c1cn2c(n1)CCCC2)N(Cc1cccc(OC(F)(F)F)c1)C1CCOCC1`, the “membrane permeability coefficient Pe compared with metoprolol” value in series [2] was “higher Pe values than the high permeability marker compound metoprolol”.
For `Cn1cnc(C(=O)N(Cc2cccc(OC(F)(F)F)c2)C2CCOCC2)n1`, the 50% inhibitory concentration (IC50) in series [1] turned out to be 11.6 nM. Also, in series [2], the “membrane permeability coefficient Pe compared with metoprolol” value was “higher Pe values than the high permeability marker compound metoprolol”.

The term IC50 denotes the concentration at which inhibition is half-maximal.

Source of the values: US8623898B2, “Glycine transporter inhibiting substances” (Taisho Pharmaceutical Co., Ltd., priority 2009, dated 2014).
